# Antibody variant affinities, Ab-95 light chain, assay 2

Reference: Engelhart et al. 2022, doi:10.1038/s41597-022-01779-4. File: FLAb, binding data.

Antigen: PDVDLGDISGINAS, a 14-residue peptide of the SARS-CoV-2 spike HR2 region.

Ab-95 is the parent antibody, in scFv form: VH, then a (GGGGS)3 linker, then VL. The heavy chain is unchanged in all variants.
VH: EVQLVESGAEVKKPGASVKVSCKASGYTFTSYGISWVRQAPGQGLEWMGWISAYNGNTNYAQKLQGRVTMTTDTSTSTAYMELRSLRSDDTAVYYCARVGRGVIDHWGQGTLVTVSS
VL: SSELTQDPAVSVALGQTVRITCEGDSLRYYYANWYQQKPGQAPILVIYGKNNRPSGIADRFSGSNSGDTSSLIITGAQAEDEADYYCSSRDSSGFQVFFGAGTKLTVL

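Library AAYL52 holds single substitutions and randomly drawn double and triple substitutions in the CDRs. AlphaSeq pools MATa yeast showing the antibodies with MATalpha yeast showing the peptide. Pairs that bind mate more often; barcode pairs of the diploids are counted by sequencing. A regression on co-assayed BCL2-family reference pairs converts the normalised counts of each replicate to an apparent Kd. Each pool was mated in three replicate cultures.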

Substitutions are numbered in sequence along the VL above, starting at 1 (not Kabat).
Scale: log10 of Kd in nM, estimated from mating counts; low values are strong binders.
"ND" marks a missing value. The strain was present, yet no cells mated with the target were sequenced in that replicate, which points to weak or no binding.
Background: pairings of library AAYL52 with three empty control strains gave a value in 28% of cases (median 3.91, 5th percentile 2.90). Values in that range, when seen in few replicates, are hard to tell from nonspecific mating. For each scFv, signals with the empty controls are counted beside the result, with their mean in brackets.
Parent in this assay: reference entry 2.31, copy in this library 2.25.

| changes | log10 Kd, replicates | empty controls |
|---|---|---|
| G24I+N52L+G94E | 3.65 / 3.64 / 3.81 | 3/9 (3.85) |
| G49N+S55R+F95Y | 3.04 / 3.01 / 3.20 | 2/9 (3.96) |
| N51D+S55C+G94K | ND / 5.52 / ND | 1/9 (3.29) |
| A32R+R90C+F95E | ND / 4.30 / 3.99 | 7/9 (4.25) |
| Y29Q+N52T+S89R | 3.31 / 3.10 / 2.24 | 2/9 (3.81) |
| S92W+G94L+V97E | 2.08 / 2.38 / 3.09 | 0/9 |
| N51R+S55D+G94W | 3.61 / 3.79 / 2.72 | 7/9 (4.44) |
| G49H+S55P+F98L | ND / 3.25 / ND | 2/9 (4.53) |
| P54N+S89E+Q96Y | 2.97 / 3.22 / ND | 3/9 (3.30) |
| S89T+G94D+V97Y | ND / ND / ND | 0/9 |
| S26M+G49Q+Q96I | ND / ND / ND | 4/9 (4.20) |
| S55M+R90F+F95H | 2.69 / 3.14 / 2.28 | 2/9 (3.45) |
| S55T+R90T | 1.76 / 1.63 / 1.59 | 4/9 (3.69) |
| L27Y+A32H+S88L | 4.83 / ND / ND | 2/9 (3.39) |
| S26Q+R53Y+R90I | 3.56 / ND / ND | 0/9 |
| R53Y+S55F+F95I | 4.31 / 4.42 / ND | 1/9 (3.71) |
| E23F+G49N+D91Q | ND / ND / ND | 6/9 (4.14) |
| S26N+F95R+V97R | 3.38 / ND / ND | 4/9 (4.19) |
| R90E+D91Y+S93L | 2.85 / 2.23 / 2.64 | 6/9 (4.35) |
| Y31W+G49F+V97D | ND / ND / ND | 0/9 |
| D25G+Y30K+D91L | ND / ND / ND | 1/9 (4.18) |
| G49I+P54L+V97F | ND / 4.31 / 4.42 | 3/9 (3.91) |
| N33H+V97A | ND / 3.41 / ND | 7/9 (4.04) |
| E23K+N33F+S93H | 4.72 / ND / ND | 2/9 (3.94) |
| S89H+F95G+Q96F | 3.07 / 3.74 / ND | 1/9 (3.43) |
| Y30R+N51S+F95V | 2.36 / 2.55 / 2.27 | 4/9 (3.88) |
| S26L+L27T+R90M | 4.43 / ND / ND | 1/9 (3.94) |
| Y30A+S55A+S89E | 2.27 / 1.96 / 1.56 | 2/9 (4.21) |
| N51H+S93K+G94Q | 4.58 / 4.00 / ND | 0/9 |
| A32P+S55L+F98L | 3.52 / 4.59 / 2.97 | 1/9 (3.67) |
| A32R+N51H+N52D | ND / ND / 4.19 | 0/9 |
| E23K+R53T+Q96D | 3.39 / 3.18 / 3.47 | 2/9 (3.55) |
| D25G+P54V+F95V | 2.56 / 2.81 / 3.60 | 4/9 (3.75) |
| S88G+F95H | ND / ND / 3.44 | 0/9 |
| G49R+G94R+V97I | ND / ND / ND | 1/9 (3.71) |
| F95S | 2.62 / 2.51 / 2.52 | 5/9 (4.22) |
| A32Y+S89K | ND / ND / ND | 0/9 |
| A32Q+S89L+S92G | ND / 2.94 / 4.13 | 1/9 (4.30) |
| L27W+R90T+V97H | ND / ND / 2.74 | 0/9 |